System: macrophages
Assay: Macrophage activation and cytokine secretion assay (M1/M2 polarization)
Format: cell-based, human
Protocol: Peripheral blood mononuclear cells (PBMCs) were isolated from whole blood by ficoll density separation. Briefly, blood was diluted 1:2 with 0.5 mM EDTA solution in PBS, loaded onto a Ficoll-filled Leucosep tube (Greiner Bio-One), and centrifuged for 20 minutes at 1000×g. After centrifugation, the leukocyte/PBMC layer was collected and sequentially washed three times with 0.5 mM EDTA solution in PBS.
Monocytes (CD14+) were isolated from PBMCs using magnetic bead-based separation following vendor specifications, e.g., Biolegend MojoSort Human CD14 Selection Kit protocol. In brief, PBMCs were labeled with biotinylated antibodies against cell surface receptors for cells not in the population of interest. The labeled cells are then captured by streptavidin-coated magnetic beads and removed by magnetic incubation. […]
Supernatants were collected at 24, 48, and 72 hrs and cytokine secretion was analyzed by flow cytometry using a LEGENDplex assay (BioLegend). […] The beads were then stained and the captured cytokine composition assessed by flow cytometry.
M1 macrophage polarization is defined as increase in production of IL-12, TNF, IL-6, IL-8, IL-1B, MCP-1 and CCL2. Additionally, markers of M1 polarization that can be detected by RNA include Nos2. […] Additionally, markers of M2 polarization that can be detected by RNA include Arg1, IDO, PF4, CCL24, IL10, and IL4Ralpha.

For “CGRP (ACDTATCVTHRLAGLLSRSGGVVKNNFVPTNVGSKAF; Calcitonin gene-related peptide 1; UniProt P06881 83-119, looked up) [neuropeptide CGRP]”, the “macrophage secretion of TNFα” value (M1 marker) was “increased” and the macrophage polarization phenotype (monocyte-derived macrophages, dilutions from 10 μM to 1 nM) was “polarized toward an M1 phenotype”.

— patent US20210283217A1, “NEUROMODULATING COMPOSITIONS AND RELATED THERAPEUTIC METHODS FOR THE TREATMENT OF INFLAMMATORY AND AUTOIMMUNE DISEASES” (Flagship Pioneering Innovations V, Inc., priority 2016, published 2021)
